Experimental findings from US10703755B2, “Substituted purine derivative” (SUMITOMO DAINIPPON PHARMA CO., LTD., priority 2016, dated 2020) are described below.

Chains of the proteins cited; added tags and fusions are not shown. Residues count along the entry.
UniProt Q9NYK1, 27-1049 limits assumed: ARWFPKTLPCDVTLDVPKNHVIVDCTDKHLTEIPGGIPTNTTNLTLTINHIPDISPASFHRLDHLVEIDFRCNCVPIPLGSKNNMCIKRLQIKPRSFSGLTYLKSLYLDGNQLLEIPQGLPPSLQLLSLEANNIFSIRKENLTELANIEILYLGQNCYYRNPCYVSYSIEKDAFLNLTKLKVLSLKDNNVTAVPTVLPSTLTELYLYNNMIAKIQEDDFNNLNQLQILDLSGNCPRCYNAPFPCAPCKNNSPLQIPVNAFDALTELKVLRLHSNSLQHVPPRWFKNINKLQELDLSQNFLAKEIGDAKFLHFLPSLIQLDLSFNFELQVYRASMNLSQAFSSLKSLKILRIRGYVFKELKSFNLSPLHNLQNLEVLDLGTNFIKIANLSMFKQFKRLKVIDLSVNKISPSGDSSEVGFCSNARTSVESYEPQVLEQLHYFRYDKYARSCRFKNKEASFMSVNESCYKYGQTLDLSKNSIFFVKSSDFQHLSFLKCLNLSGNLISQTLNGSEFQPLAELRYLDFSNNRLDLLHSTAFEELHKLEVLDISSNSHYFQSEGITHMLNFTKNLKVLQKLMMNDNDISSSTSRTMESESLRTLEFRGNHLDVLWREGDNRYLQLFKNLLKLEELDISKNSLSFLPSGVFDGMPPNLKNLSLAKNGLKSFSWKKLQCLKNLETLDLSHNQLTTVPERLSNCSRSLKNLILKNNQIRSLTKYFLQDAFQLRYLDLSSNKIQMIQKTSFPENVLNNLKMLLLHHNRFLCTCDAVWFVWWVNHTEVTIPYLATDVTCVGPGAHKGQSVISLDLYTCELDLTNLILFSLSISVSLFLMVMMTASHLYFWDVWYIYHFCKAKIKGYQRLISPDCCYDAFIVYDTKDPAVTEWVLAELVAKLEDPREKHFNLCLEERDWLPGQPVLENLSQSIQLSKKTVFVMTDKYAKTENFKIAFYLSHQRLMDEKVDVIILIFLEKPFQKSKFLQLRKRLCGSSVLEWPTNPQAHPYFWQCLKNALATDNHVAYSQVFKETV

This assay deals with human TLR7 (Homo sapiens (Human), UniProt Q9NYK1). The assay can be described thus: Test for evaluating the inhibition of the activation of human TLR7 (SEAP reporter, TLR7/NF-κB/SEAPorter HEK293 cell). Conditions: for IC50: read-out: TLR7 IC50, R-848 200 nmol/L, SEAP reporter. It is filed as cell-based.

Each structure is given as a SMILES string.

As to `CCOc1nc(C)c2nc(-c3cncc(F)c3)n(Cc3cnn(CCCN4CCN(C)CC4)c3)c2n1`, the IC50 came out at 28 nM. In addition, the “inhibitory effect against TLR7 in the test for evaluating inhibition of the activation of TLR7” value (R-848 200 nmol/L, SEAP activity, result in words) is given as “potent inhibitory effect against TLR7”.

With `CCOc1nc(C)c2nc(-c3cncc(F)c3)n(Cc3ccc(OC4CN(C)C4)nc3)c2n1`, the IC50 is 1400 nM.

With `COCCOc1nc(C)c2nc(-c3cncc(F)c3)n(Cc3ccc(CN(C)C)cc3)c2n1`, the IC50 was determined as 1000 nM.

For `CCOc1nc(C)c2nc(-c3cncc(F)c3)n(Cc3ccc(CN(C)C)cc3)c2n1`, the IC50 stood at 160 nM.

With `CCCCOc1nc(N)c2nc(-c3cncc(F)c3)n(Cc3cccc(CN(C)C)c3)c2n1`, the IC50 came to 500 nM.
